Experiments:
Cholinesterase = Cholinesterase (Equus caballus, UniProt P81908); experiment: Inhibition of equine serum BuChE pre-incubated for 5 mins before butyrylthiocholine iodide substrate by Ellman' method
Acetylcholinesterase = Acetylcholinesterase (Homo sapiens, UniProt P22303)

Chains of the proteins cited; added tags and fusions are not shown. Residues count along the entry.
UniProt P81908, whole entry, looked up: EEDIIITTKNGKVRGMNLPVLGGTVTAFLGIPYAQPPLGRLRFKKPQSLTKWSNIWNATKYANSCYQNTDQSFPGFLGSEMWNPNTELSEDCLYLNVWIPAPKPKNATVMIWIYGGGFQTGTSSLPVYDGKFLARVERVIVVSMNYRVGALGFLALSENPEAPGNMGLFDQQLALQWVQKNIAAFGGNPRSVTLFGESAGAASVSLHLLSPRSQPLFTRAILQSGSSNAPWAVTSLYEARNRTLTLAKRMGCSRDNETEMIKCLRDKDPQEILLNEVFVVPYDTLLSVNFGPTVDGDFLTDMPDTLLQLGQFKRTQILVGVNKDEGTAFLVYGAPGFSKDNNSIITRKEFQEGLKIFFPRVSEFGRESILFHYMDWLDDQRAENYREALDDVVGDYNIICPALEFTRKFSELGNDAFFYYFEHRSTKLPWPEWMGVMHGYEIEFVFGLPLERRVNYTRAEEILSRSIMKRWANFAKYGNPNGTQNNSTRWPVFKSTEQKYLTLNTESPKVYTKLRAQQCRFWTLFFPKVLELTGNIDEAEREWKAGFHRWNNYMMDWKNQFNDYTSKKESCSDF
UniProt P22303, 32-614 limits assumed: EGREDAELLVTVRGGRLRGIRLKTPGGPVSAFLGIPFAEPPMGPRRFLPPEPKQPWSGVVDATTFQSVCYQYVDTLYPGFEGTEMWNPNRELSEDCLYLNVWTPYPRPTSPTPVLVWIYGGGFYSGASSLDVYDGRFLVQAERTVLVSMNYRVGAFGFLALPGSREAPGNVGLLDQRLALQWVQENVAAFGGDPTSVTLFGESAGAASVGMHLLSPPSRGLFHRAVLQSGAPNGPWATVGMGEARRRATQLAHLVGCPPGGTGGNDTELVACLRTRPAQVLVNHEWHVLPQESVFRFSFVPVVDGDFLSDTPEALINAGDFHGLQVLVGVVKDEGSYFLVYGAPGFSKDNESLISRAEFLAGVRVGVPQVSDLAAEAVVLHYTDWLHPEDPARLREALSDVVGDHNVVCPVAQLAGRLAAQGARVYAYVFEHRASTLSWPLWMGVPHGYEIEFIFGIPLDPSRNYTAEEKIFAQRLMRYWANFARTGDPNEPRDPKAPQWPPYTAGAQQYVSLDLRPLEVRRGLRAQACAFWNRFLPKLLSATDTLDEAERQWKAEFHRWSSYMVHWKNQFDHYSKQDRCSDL

`COc1cc(N)c(Cl)cc1/C(CCC1CCN(CC2CCCCC2)CC1)=N/O` was tested, and the IC50 (Cholinesterase) was 7.08 µM and the IC50 (Acetylcholinesterase) was 0.024 µM.

Reference: ChEMBL document CHEMBL3414476, “Novel multitarget-directed ligands (MTDLs) with acetylcholinesterase (AChE) inhibitory and serotonergic subtype 4 receptor (5-HT4R) agonist activities as potential agents against Alzheimer's disease: the design of donecopride” (J Med Chem, 2015)
